Most compounds without a hit are left out; they make up all but 13% or so of the library.
ALDH1A1 inh = blocks purified human ALDH1A1 activity. P00352. Purified ALDH1A1, NADH fluorescence, propionaldehyde substrate. Potency, µM (titrated, usually from 75.3 µM), inactives show top-dose activity, negative = inhibition, most hits filed as inhibitors. 7.3% of 220,000 active. AID 1030; active = well fitted inhibition curve with a large enough effect, not every such curve was filed as active; inconclusive = small, poorly fitted or top-dose-only effect, or another doubt; inactive = no such curve, though single readings can be large or run the other way;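 also: potency is read from the fitted curve at half-maximal effect; plate controls were no enzyme wells and a reference inhibitor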
Sfp inh = blocks B. subtilis Sfp PPTase activity; Q9F4F7; Biochemical Sfp PPTase activity, qHTS; Potency, µM, for the others: max response, negative = inhibition, most hits filed as inhibitors; actives 3.5% (n = 310,000); AID 1490; active = well fitted inhibition curve with a large enough effect; inconclusive = small, poorly fitted or top-dose-only effect, or another doubt; inactive = no such curve, though single readings can be large or run the other way;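 also: the enzyme is Sfp with the accession as filed and its product quenches rhodamine fluorescence; potency is read from the fitted curve at half-maximal effect; 0% = enzyme reaction without inhibitor and -100% = no enzyme wells; top concentration of the series not given in the record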
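Buffer: 50 mM Hepes-Na pH 7.6, 10 mM MgCl2, 0.01% Nonidet P-40, 0.01% BSA. Enzyme 15 nM, pre-exposed to compound 15 min; substrates then added and fluorescence change tracked over 30 min.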
Lamin A splicing = modulators of lamin A splicing. AID 1487. Potency, µM (doses to about 46.1 µM), without a hit: at the top dose ratio change, negative = inhibition, usual class: inhibitors. HeLa LMNA splicing GFP/RFP minigene ratio, 48 h. 0.01% of 200,000 active; active = well fitted inhibition curve with a large enough effect in the signal ratio, with a control signal flat, not every such curve was filed as active; inconclusive = small, poorly fitted or top-dose-only effect, or effect the other way, or a change in a side signal; the % refers to the signal ratio; also: potency is read from the fitted curve at half-maximal effect; % is scaled to controls: 0 for no effect and ±100 for the full control effect
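S3 HeLa stable clones carrying a lamin A-EGFP splicing minigene plus DsRed2 were seeded at 600 cells/well in Opti-MEM with 2% FBS, pin-dosed and incubated 48 h at 37°C. Acumen cytometry (488 nm) gave the GFP/RFP total-intensity ratio.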
JMJD2E inh = blocks human JMJD2E demethylase activity | B2RXH2 | JMJD2E catalytic domain, FDH-coupled NADH fluorescence (FDH is formaldehyde dehydrogenase) | Potency, µM (doses to about 57.1 µM), for inactives: at the top dose activity change, negative = inhibition, usual class: inhibitors | 1.6% of 230,000 active | AID 2147; active = well fitted inhibition curve with a large enough effect, not every such curve was filed as active; inconclusive = small, poorly fitted or top-dose-only effect, or another doubt; inactive = no such curve, though single readings can be large or run the other way;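 also: potency is read from the fitted curve at half-maximal effect; 0% = wells with enzyme and -100% = buffer wells without enzyme; nearly all actives have a fitted effect of over 50% in size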
miR-21 reporter = miR-21 reporter, rising signal; HeLa miR-21 FLuc reporter, luciferase, 48 h; Potency, µM (highest dose often 38.3 µM), for the others: top-dose reporter change, positive = more light; 340,000 tested, under 10 active; AID 2288; active = well fitted rising curve with a large enough effect; inconclusive = small, poorly fitted or top-dose-only effect; inactive = no such curve, though single readings can be large or run the other way;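 further: % of control where 0% means no effect; miR-21 action dims this reporter so a rising signal means less miR-21 action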
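HeLa cells endogenously expressing miR-21, stably carrying CMV-driven firefly luciferase with a downstream miR-21 binding site, 2000 cells/well. Titrations up to approximately 40 uM, 48 hours; luciferase luminescence read.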
G9a block = G9a (human) methyltransferase inhibition. Potency, µM (highest dose often 102 µM), for the others: at the top dose activity, negative = inhibition, usual class: inhibitors. 8.8% of 350,000 active. G9a H3K9 monomethylation, AlphaScreen, 2 h. AID 504332; also: potency is read from the fitted curve at half-maximal effect; % is scaled to controls: 0 for no effect and ±100 for the full control effect; nearly all actives have a fitted effect of over 75% in size
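Using a bead-based AlphaScreen, monomethylated H3K9 product from 2 h room-temperature reactions (G9a 20 nM, peptide 500 nM, SAM 20 uM) was detected with 0.5 ug/mL rabbit anti-H3K9me1 antibody.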
Active calls of the source: *; ? = inconclusive; nt = no result; [ ] = another dose, or the depositor's remark. Unless noted, calls follow the shape of the dose curve; as a rule, active = well fitted curve in the direction sought with a large enough effect; inconclusive = small, poorly fitted or top-dose-only effect, or another doubt; inactive = no such curve, though single readings can be large; an effect the other way counts as inactive or inconclusive.

No.	canonical_smiles	ALDH1A1 inh	Sfp inh	Lamin A splicing
1	COc1cccc(Nc2cc(N3CCOCC3)c3nonc3c2[N+](=O)[O-])c1	3%	8%	0%
2	O=C(O)c1ccccc1Nc1ccc([N+](=O)[O-])cc1C(=O)O	nt	16%	nt
3	O=C(O)c1ccccc1Nc1ccc([N+](=O)[O-])c2nonc12	nt	-9%	nt
4	O=C(O)c1ccccc1[N+](=O)[O-]	3%	nt	nt
5	COc1cccc(Nc2ccc([N+](=O)[O-])c3nonc23)c1	nt	-9%	nt
6	O=C(O)c1ccccc1N/C=C\[N+](=O)[O-]	?	56µM*	nt
7	Cc1cc(C)c2sc(N3CCN(C(=O)C4CC4)CC3)nc2c1	nt	nt	2%[46 µM]
8	Cc1cc[n+](CCC(=O)O)c2ccccc12	-5%	1%	16%
9	Cc1cc[n+](-c2ccccc2)c2ccccc12	-5%	9%	-9%[46 µM]
10	C[C@@H](NC(=O)c1[nH]cnc1C(=O)Nc1ccon1)c1ccccc1	nt	nt	nt
11	COc1cc(NC(=O)c2ccccc2)c(OC)cc1NC(=O)CSc1[nH]c(=O)cc(C)c1C#N	nt	-7%	nt
12	COCCOC(=O)c1c(C)nc(SCC(=O)Nc2cccc3ccccc23)c(C#N)c1-c1ccco1	?	7.9µM*	7%
13	Cc1cc(=O)[nH]c(SCC(=O)Nc2cccc3ccccc23)c1C#N	?	50µM*	?
14	COCCOC(=O)c1c(C)nc(SCC(=O)Nc2ccc(C)cc2)c(C#N)c1-c1ccco1	?	23%	?
15	Cc1cc(=O)[nH]c(SCC(=O)C23CC4CC(CC(C4)C2)C3)c1C#N	3.2µM*	-66%	?

No.	JMJD2E inh	miR-21 reporter	G9a block
1	10%	0%	?
2	-3%	-1%	32µM*
3	nt	-5%	45µM*
4	nt	nt	nt
5	nt	0%	22µM*
6	?	0%	67%
7	nt	-53%	8%[59 µM]
8	?	0%	?
9	-6%	16%	25µM*
10	nt	nt	2%[0.501 µM]
11	nt	17%	-8%
12	-3%	6%	-30%[59 µM]
13	?	-2%	?
14	?	-3%	0%[12.7 µM]
15	-1%	2%	4%[12.7 µM]

4 compounds out of the list above, ordered by the number in JMJD2E inh, ascending:
entry	smiles	JMJD2E inh
9	Cc1cc[n+](-c2ccccc2)c2ccccc12	-6%
12	COCCOC(=O)c1c(C)nc(SCC(=O)Nc2cccc3ccccc23)c(C#N)c1-c1ccco1	-3%
15	Cc1cc(=O)[nH]c(SCC(=O)C23CC4CC(CC(C4)C2)C3)c1C#N	-1%
1	COc1cccc(Nc2cc(N3CCOCC3)c3nonc3c2[N+](=O)[O-])c1	10%

Carrying on:
No.	canonical_smiles	ALDH1A1 inh	Sfp inh	Lamin A splicing
16	COCCNC(=O)c1cc(Sc2ccc(F)cc2F)nc2ccccc12	nt	nt	?
17	CCN(CC)Cc1cc(C(=O)O)c(C)o1	3%	19%	0%[46 µM]
18	COc1ccc(OCc2cc(C(=O)O)c(C)o2)cc1	10%	19%	nt
19	CCCN1CCN(S(=O)(=O)c2c(C)[nH]c(C)c2C(=O)N2CCCCC2)CC1	nt	19%	nt
20	Cc1nn(CCCC(=O)Nc2cccc(C(F)(F)F)c2)c(=O)c2nn(-c3ccccc3)c(C)c12	nt	nt	-3%[46 µM]
21	Cc1ccc2c(c1C)NC(C)CC2C (stereo not drawn)	-1%	-11%	9%
22	Cc1cc(NC(=O)/C=C/C(=O)N(CC(=O)NC2CCCC2)c2cccc3ccccc23)no1	2µM*	5%	?
23	Cc1cc(NC(=O)CCC(=O)N(CC(=O)NC2CCCC2)c2ccccc2)no1	-8%	13%	-7%
24	CCCS(=O)(=O)Nc1ccc2cn[nH]c2c1	5%	17%	nt
25	C/C(=N/NC(N)=S)c1ccc(Br)s1	22µM*	-1%	?
26	COc1cc2c(cc1OC)C1=C(C#N)CCC(=NC(=O)c3ccc(Cl)cc3)N1CC2	-11%	16%	?
27	COc1cc2c(cc1OC)C1=C(C#N)COCN1CC2	?	-20%	-4%
28	CCOc1ccc(N(CC(=O)Nc2ccccc2C(=O)NCc2ccco2)S(C)(=O)=O)cc1	0%	10%	-6%
29	Cc1ccc(Cn2c(SCC(=O)NCC3CCCO3)nc3ccsc3c2=O)cc1 (stereo not drawn)	20µM*	4%	2%[46 µM]
30	CCOc1ccc(N(CC(=O)NCc2ccco2)S(C)(=O)=O)cc1	3%	56µM*	-6%

No.	JMJD2E inh	miR-21 reporter	G9a block
16	nt	1%	?
17	13%	-28%	0%
18	2%	-30%	45µM*
19	nt	-3%	0%[59 µM]
20	nt	2%	-13%[59 µM]
21	?	-2%	14µM*
22	-8%	22%	?
23	14%	-8%	11%[59 µM]
24	-5%	-1%	25%
25	-12%	20%	16µM*
26	-7%	-13%	101%[59 µM]
27	?	-10%	14µM*
28	-10%	-17%	-2%[59 µM]
29	8%	-1%	3%
30	-10%	-10%	11%[59 µM]

Following part.
No.	canonical_smiles	ALDH1A1 inh	Sfp inh	Lamin A splicing
31	CCOc1ccc(-n2c(SCC(=O)NCc3ccco3)nc3c(c2=O)SCC3)cc1	14µM*	6%	-6%
32	O=C(CSc1nc2ccsc2c(=O)n1Cc1ccc(C(=O)O)cc1)NCC1CCCO1 (stereo not drawn)	-3%	-4%	-5%
33	O=C(CSc1nc2c(c(=O)n1-c1ccc(Br)cc1)SCC2)NCc1ccco1	3%	-13%	16%
34	CCOC(=O)c1sc(NC(=O)CSc2nc3c(c(=O)n2-c2ccc(C)cc2)SCC3)c(C(=O)OCC)c1C	9.5µM*	2%	?
35	CCn1c(=O)c2c(nc(SCC(=O)Nc3ccccc3)n2C)n(C)c1=O	nt	17%	nt
36	O=C(C1CCC(=O)N(C2CC2)C1)N1CCN(c2cccc(Cl)c2)CC1 (stereo not drawn)	nt	9%	nt
37	CC(C)CCNC(=O)CCc1nnc2ccc(N3CCC(C)CC3)nn12	nt	-1%	nt
38	NC(=O)c1c(NC(=O)CS(=O)(=O)c2ccc(Cl)cc2)sc2c1CCCCC2	nt	nt	-9%[46 µM]
39	COc1ccc(-n2c(SCC(=O)NCC3CCCO3)nc3c(c2=O)SCC3)cc1 (stereo not drawn)	nt	-7%	nt
40	Cc1ccc(-n2c(SCC(=O)NCC3CCCO3)nc3c(c2=O)SCC3)cc1 (stereo not drawn)	25µM*	?	7%
41	NC(=NCc1ccc(Cl)cc1Cl)NC(=O)c1nc(Cl)c(N)nc1N	?	25µM*	nt
42	C1CNCCNCCCNCCNC1	5%	4%	-9%
43	O=C(O)CC12CC3CC(C1)CC(n1ncc(NCc4ccco4)c(Cl)c1=O)(C3)C2	nt	-27%	nt
44	O=C(O)CC12CC3CC(C1)CC(n1ncc(NCC4CCCO4)c(Cl)c1=O)(C3)C2 (stereo not drawn)	25µM*	22%	nt
45	CCOc1ccc(CCNC(=O)c2cn(C)c3ccc(S(=O)(=O)N4CCOCC4)cc3c2=O)cc1OCC	nt	3%	nt
46	COc1ccc(NC(=O)c2oc3ccc(S(=O)(=O)N4CCC5(CC4)OCCO5)cc3c2C)cc1	22µM*	-14%	-23%
47	Cc1ccc(NC(=O)c2oc3ccc(S(=O)(=O)N4CCC5(CC4)OCCO5)cc3c2C)cc1Cl	nt	nt	?
48	O=C1c2cccc3cccc(c23)C(=O)N1CCCc1n[nH]c(=S)n1-c1ccccc1	-14%	-13%	-11%[46 µM]

No.	JMJD2E inh	miR-21 reporter	G9a block
31	-4%	-1%	-9%[59 µM]
32	-1%	-3%	-6%
33	-6%	-6%	?
34	-1%	-4%	-33%
35	nt	2%	25%[59 µM]
36	nt	-1%	?
37	nt	-1%	-8%
38	nt	23%	-5%[59 µM]
39	nt	-3%	nt
40	3%	-12%	-15%[59 µM]
41	nt	nt	2%[59 µM]
42	3%	-2%	12%
43	-19%	-1%	-45%
44	-10%	3%	56µM*
45	nt	-1%	4%
46	?	28%	?
47	nt	-1%	-5%[59 µM]
48	-19%	1%	4µM*

From PubChem
